# Assay results as given in article PMC6923863 (BMC Pharmacology & Toxicology, 2019).
# “And” between values parts separate entries of the source, which are not always exact repeats. Equal values may be shown once.
# Target: NMDA receptor (Rattus norvegicus, UniProt P35439)
# Test: biochemical
# Settings: IC50, 5 nM [3H]-MK-801, rat brain preparations, pH 7.4, 3 h, 25 °C
compound,measurement,value
CNC1(c2ccccc2Cl)CCCCC1=O (stereo not shown) [Ketamine],IC50,< 1000 nM and 700 nM
